miR122 inh: blocks miR-122 activity in Huh7 sensor cells; activation (reporter increase), % at 12.5 µM; AID 602342; Huh7 miR-122 Renilla luciferase sensor, 48 h; neutral wells = 0, positive control = 100; hit rate 0.3% among 340,000;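 active means mean replicate activation score at least 90 and every replicate individually at or above 90; inconclusive means only one of the two criteria met; inactive means neither criterion met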;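 further: higher luciferase means less miR-122 activity so hits act as miR-122 inhibitors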
CFTR F508del cor: correctors of CFTR F508del function in bronchial epithelial cells; AID 720511; activity (quench increase), % at 7.58 µM; CFBE cells, YFP halide quenching; stimulated with forskolin plus potentiator P3; % fluorescence drop versus neutral controls; hit rate 0.36% among 350,000;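 active means mean added fluorescence quench of at least 8% versus neutral control, with both replicates also reaching 8%; inconclusive means only one of the mean or replicate conditions met; inactive means mean below 8% and not both replicates reaching 8%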;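 further: cells transiently co-express mutant CFTR-F508del with the halide-sensitive YFP; corrector assay measuring rescue of mutant channel to the surface after 24 h compound exposure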
UUG fidelity: alters start codon recognition fidelity in yeast; S. cerevisiae UUG-firefly luciferase reporter, luminescence/redox ratio; activity score, % at 18.7 µM; actives 0.13% (n = 350,000); AID 602363;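 active = replicate mean at a twofold rise or more, about +100% in these data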;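 also: firefly luciferase made from a UUG start codon reports start codon fidelity; reporter light over untreated wells divided by growth signal over untreated wells; some hits fall short of that in this replicate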
LGR2 antag: inhibitors of bursicon-induced Drosophila LGR2 receptor cAMP signaling. hit rate 0.35% among 380,000. inhibition, % at 9.99 µM. HEK293 LGR2, CRE-luciferase, bursicon-stimulated, 4 h. AID 720647;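 active means drop in luminescence signal, shown as inhibition above about 50% in the replicate tests, limit read from the data, passing the limit was not always enough; inconclusive means probably only some replicates passing the limit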;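 further: agonist challenge used bursicon conditioned medium at about half maximal strength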
PglD inh: blocks C. jejuni PglD acetyltransferase activity | purified PglD enzyme, DTNB colorimetric CoA detection | inhibition, % at 12.5 µM | hit rate 0.098% among 360,000; in the data active means inhibition above about 16%, passing the limit was not always enough; inconclusive means no clear call, values can overlap the other calls
EWS-Fli block: blocks EWS/Fli oncoprotein-driven transcription | hit rate 0.67% among 350,000 | A673 NR0B1-luciferase reporter, viability-normalised | inhibition, % at 12.6 µM | AID 651661;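 active means mean inhibition of at least 50% after viability correction, with every replicate also passing that limit; inconclusive means mean reaches 50% but only one of two replicates passes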;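 further: firefly luciferase signal divided by Alamar Blue viability fluorescence both relative to DMSO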
Of the large screens only hits and unclear results are named; the others gave an inactive call. Hits are enriched below; roughly 1.3% of the tested compounds scored in any of these assays.

CC(=O)Nc1sc2c(c1-c1nc3ccccc3s1)CN(C(C)C)CC2	CFTR F508del cor 23.5, LGR2 antag 102.1, EWS-Fli block 54.2
CN(C(=O)c1ccc(NC(=O)Cc2cccc(NC(=O)C3CCCN(C(=O)CCc4ccccc4)C3)c2)cc1)C1CC1 (configuration not stated)	none
NS(=O)(=O)c1ccc(NC(=O)c2cccc3ccccc23)cc1	none
NS(=O)(=O)c1ccc(NC(=O)c2cccc3cc4ccccc4nc23)cc1	CFTR F508del cor 18.5 (no result: miR122 inh, UUG fidelity, PglD inh)
CCOc1ccc(NS(=O)(=O)c2cc(NC(=O)C3CC3)ccc2C)cc1Br	miR122 inh 140.2
Cc1ccc(NC(=O)C2CCC2)cc1S(=O)(=O)N1CCCCCC1	none
COC(=O)c1cccc(NC(=O)c2cccc([N+](=O)[O-])c2)c1	none (no result: LGR2 antag)
CCOc1ccc(NC(=O)c2ccccc2NC(=O)CNC2CCCC(C)C2C)cc1 (configuration not stated)	CFTR F508del cor 10.6
CCOc1ccc(NC(=O)c2ccccc2NC(=O)CN(C)CC(=O)Nc2ccc(C)cc2)cc1	none (no result: CFTR F508del cor, LGR2 antag, EWS-Fli block)
O=C(NCCc1ccccc1)c1nccc2ccccc12	none
c1ccc(CCNc2ccnc3cc4ccccc4cc23)cc1	LGR2 antag 107.1 (no result: miR122 inh, UUG fidelity, PglD inh)
COc1ccc(Nc2ccnc3ccccc23)cc1	none (no result: CFTR F508del cor, UUG fidelity, LGR2 antag, PglD inh, EWS-Fli block)
CC(C)Nc1ccc(Nc2ccnc3cc4ccccc4cc23)cc1	CFTR F508del cor 27.1, LGR2 antag 73.9 (no result: miR122 inh, UUG fidelity, PglD inh)
Cc1cc(C)c(S(=O)(=O)NCc2ccccn2)cc1C	miR122 inh 100.6
COc1ccc(C(C)C)cc1S(=O)(=O)NCc1ccccn1	none (no result: CFTR F508del cor, LGR2 antag, EWS-Fli block)
Cc1ccc(C(C)C)cc1S(=O)(=O)NCc1ccccn1	miR122 inh 282.8
O=C(NC(Cc1c[nH]c2ccccc12)C(=O)O)/C(=C\c1ccccc1)NC(=O)c1ccccc1 (configuration not stated)	none (no result: miR122 inh)
Cn1cnc([N+](=O)[O-])c1Sc1ncn[nH]1	none (no result: miR122 inh)
CCN(Cc1ccc(C#CCCO)cc1)CC1CCCN(CCc2cccc(OC)c2)C1 (configuration not stated)	none (no result: LGR2 antag)
Cc1cccc(S(=O)(=O)Nc2cccc(-c3cn4ccsc4n3)c2)c1	none (no result: CFTR F508del cor, LGR2 antag, EWS-Fli block)
Cc1ccc(S(=O)(=O)Nc2cccc(-c3cn4ccsc4n3)c2)cc1	miR122 inh 142.3 (no result: CFTR F508del cor, LGR2 antag, EWS-Fli block)
CSCCC(NC(N)=O)C(=O)Nc1ccc(F)c(Cl)c1 (configuration not stated)	none (no result: miR122 inh, UUG fidelity, PglD inh)
O=C(Cc1ccccn1)NCC[C@H]1CC[C@H](NC(=O)Nc2ccc(C(F)(F)F)cc2)[C@@H](CO)O1	none (no result: miR122 inh)
O=C(Cc1ccccn1)NCC[C@@H]1CC[C@H](NC(=O)Nc2ccc(C(F)(F)F)cc2)[C@H](CO)O1	CFTR F508del cor 12.0 (no result: miR122 inh)
COc1ccc(CNC(=O)c2c(C)oc3c2C(=O)c2ccccc2C3=O)cc1	CFTR F508del cor 11.8, LGR2 antag 76.7
CC(=O)c1c(C)oc2c1C(=O)c1ccccc1C2=O	none (no result: CFTR F508del cor, EWS-Fli block)
COc1cccc(C(C)(O)c2nc(-c3ccccc3OC)cs2)c1 (configuration not stated)	none
Cc1cccc(N/C=C/c2onc(C)c2[N+](=O)[O-])c1	none (no result: CFTR F508del cor, UUG fidelity, LGR2 antag, PglD inh, EWS-Fli block)
Cc1cccc(/C=C/c2onc(C)c2[N+](=O)[O-])n1	LGR2 antag 70.5 (no result: miR122 inh, UUG fidelity, PglD inh)
CC(=NNC(=S)N1CCCCC1)c1cccc(C)n1	CFTR F508del cor 11.9 (no result: miR122 inh, UUG fidelity, PglD inh)
CC=Cc1ccc2n(c1=O)C[C@H]1[C@H](CO)[C@@H](C(=O)NCC3CCCCC3)N(C(=O)CC)[C@@H]21 (mixture of isomers)	none (no result: UUG fidelity)
CC1CCN(S(=O)(=O)c2cn(CC(=O)Nc3ccc(C#N)cc3)cn2)CC1	none (no result: miR122 inh, EWS-Fli block)
CC(=O)Nc1cc([N+](=O)[O-])ccc1N1CCOCC1	none (no result: miR122 inh, CFTR F508del cor, UUG fidelity, PglD inh)
O=C(Nc1ccc([N+](=O)[O-])cc1)Nc1ccc(N2CCOCC2)c2nonc12	LGR2 antag 66.8
NC(=O)c1cccc(NC(=O)Nc2ccc(Cl)cc2)c1	none
CCCCOCCCNC(=S)Nc1ccc(S(=O)(=O)N2CCOCC2)cc1	miR122 inh 176.0
O=S(=O)(c1ccc(NC(=S)NCCC(c2ccccc2)c2ccccc2)cc1)N1CCOCC1	none (no result: miR122 inh, CFTR F508del cor, UUG fidelity, PglD inh, EWS-Fli block)
Cc1ccc(CC2SC(=Nc3ccccc3)N(c3ccccc3)C2=O)cc1 (configuration not stated)	none (no result: CFTR F508del cor, EWS-Fli block)
O=C(CN(Cc1cccs1)S(=O)(=O)c1ccc(S(=O)(=O)NC2CCCCC2)cc1)Nc1ccccc1	miR122 inh 132.1 (no result: CFTR F508del cor, EWS-Fli block)
Cc1cc(C(=O)COC(=O)c2ccccc2Br)c(C)n1CC1CCCO1 (configuration not stated)	LGR2 antag 91.9
Cc1cc(C(=O)COC(=O)c2ccccc2O)c(C)n1CC1CCCO1 (configuration not stated)	LGR2 antag 99.8, EWS-Fli block 84.3
CCCn1c(C)cc(C(=O)COC(=O)c2ccc[nH]c2=O)c1C	LGR2 antag 55.7 (no result: CFTR F508del cor, EWS-Fli block)
O=C(CSc1oc(-c2ccccc2)nc1S(=O)(=O)c1ccc(F)cc1)NCC1CCCO1 (configuration not stated)	none (no result: CFTR F508del cor, LGR2 antag, EWS-Fli block)
COc1ccc(C2NC(=S)NC3=C2CCCC3=C2SCCS2)cc1 (configuration not stated)	CFTR F508del cor 10.5, EWS-Fli block 62.6
CCCNC(=O)C(=O)Nc1ccc2c(c1)N(S(=O)(=O)c1cccs1)CCC2	none
COCCCNC(=O)C(=O)Nc1ccc2c(c1)N(S(=O)(=O)c1cccs1)CCC2	EWS-Fli block 62.9
O=C1c2cccc(NCCCNCCO)c2C(=O)c2cccc(NCCCNCCO)c21	CFTR F508del cor 12.8, LGR2 antag 11.8 (no result: UUG fidelity, PglD inh)
CC(C)C[C@@H](CN1CCC[C@@H]1CN1C(=S)NC[C@@H]1Cc1ccccc1)N1C[C@H](Cc2ccc(O)cc2)N(CC2CCCCCC2)C1=S	none
Cc1ccc2nc(NC(=O)CCCC(=O)O)sc2c1	LGR2 antag inconclusive, EWS-Fli block 81.3 (no result: UUG fidelity, PglD inh)
Cc1ccc2nc(NC(=O)CCCc3nc4ccccc4s3)sc2c1	none (no result: CFTR F508del cor, EWS-Fli block)
CCOCCCNC(=O)c1ccc2c(c1)N=C(CC)c1cc(Br)ccc1S2	EWS-Fli block 61.2 (no result: miR122 inh)
CCC1=Nc2cc(C(=O)NCCN3CCOCC3)ccc2Sc2ccccc21	none (no result: EWS-Fli block)
CCCCOc1ccc(-c2cnc3ccccc3n2)cc1	LGR2 antag 70.3 (no result: miR122 inh, CFTR F508del cor, UUG fidelity, PglD inh, EWS-Fli block)
C[C@@H]1CCCCO[C@@H](CN(C)Cc2ccc(C(F)(F)F)cc2)[C@H](C)CN([C@@H](C)CO)C(=O)c2cc(NS(=O)(=O)c3ccccc3)ccc2O1	EWS-Fli block 66.0
Cc1ccc(S(=O)(=O)Nc2ccc3c(c2)C(=O)N([C@@H](C)CO)C[C@H](C)[C@H](CN(C)Cc2ccc(C(F)(F)F)cc2)OCCCC[C@@H](C)O3)cc1	none
C[C@@H]1CN([C@H](C)CO)C(=O)c2cc(NS(=O)(=O)c3ccc(F)cc3)ccc2O[C@@H]1CN(C)Cc1ccc(C(F)(F)F)cc1	EWS-Fli block 68.1
Cc1ccc(S(=O)(=O)Nc2ccc3c(c2)C(=O)N([C@H](C)CO)C[C@@H](C)[C@H](CN(C)Cc2ccc(C(F)(F)F)cc2)OCCCC[C@H](C)O3)cc1	EWS-Fli block 65.8

Screens deposited in PubChem BioAssay by Broad Institute.
